From PubChem BioAssay AID1135 (Sanford-Burnham Center for Chemical Genomics, 2008) come the findings set out here.

Sequences of proteins named here, by UniProt entry; tags and fusion partners are left off.
UniProt P05186, whole entry: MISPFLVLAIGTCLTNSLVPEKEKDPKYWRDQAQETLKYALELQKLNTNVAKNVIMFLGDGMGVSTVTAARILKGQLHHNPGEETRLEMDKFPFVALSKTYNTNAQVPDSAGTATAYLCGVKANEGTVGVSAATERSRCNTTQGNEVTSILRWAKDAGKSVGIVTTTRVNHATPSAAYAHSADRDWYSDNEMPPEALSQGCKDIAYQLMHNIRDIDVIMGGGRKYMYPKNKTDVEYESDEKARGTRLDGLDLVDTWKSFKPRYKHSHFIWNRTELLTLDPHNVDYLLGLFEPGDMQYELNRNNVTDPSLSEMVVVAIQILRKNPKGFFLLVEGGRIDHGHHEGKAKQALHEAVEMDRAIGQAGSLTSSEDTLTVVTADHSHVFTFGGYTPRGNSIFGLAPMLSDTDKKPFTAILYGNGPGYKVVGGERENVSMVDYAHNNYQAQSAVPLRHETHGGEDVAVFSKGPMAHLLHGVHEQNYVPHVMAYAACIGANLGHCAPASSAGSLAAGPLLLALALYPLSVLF

This is a selection; strong and weak results do not stand in their true shares. The source made the active and inactive calls.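 The calls were made as follows: active = over 50% inhibition of tissue-nonspecific alkaline phosphatase at 20 µM in the single-dose screen; inactive = the rest.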

What is called inhibition is the change of the read-out against control, counted positive when it falls.

The target in this experiment is Alkaline phosphatase, tissue-nonspecific isozyme (Homo sapiens) (UniProt P05186). Put plainly: human TNAP enzyme inhibitors, primary screen, biochemical, luminescent, high phosphate acceptor level, uHTS (AID 1135).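 Also: plate controls were DMSO wells for no effect and EDTA-quenched wells as full inhibition for full effect.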 To be noted: purified TNAP, CDP-star luminescence, 1 M DEA; at 20 µM; active compounds read high.
Regarding `O=C(NCC1(N2CCOCC2)CCCCC1)c1cc(=O)[nH]c2ccccc12`, the inhibition was inactive: -2.2%.

Turning to `CN1CCN(CCOC(=O)C(O)(c2ccccc2)c2ccccc2)CC1`, the inhibition was inactive: -6.2%.

Take `COc1ccc(NC2CCN(C(=O)OC(C)(C)C)CC2)cc1`: the inhibition is inactive: -3.5%.

For the compound `N#CC1(Nc2ccccc2)CCN(CCc2ccccc2)CC1`, the inhibition was inactive: -7.6%.

In the case of `O=C(NCC1(N2CCCCC2)CCCCC1)c1cccc([N+](=O)[O-])c1`, the inhibition is inactive: -1.2%.

Regarding `CC(C)c1ccc(NC2CCN(C(=O)OC(C)(C)C)CC2)cc1`, the inhibition was inactive: -5.2%.

On to `COc1ccc(CN(CCCl)CCCl)cc1Cl`, for which the inhibition was inactive: -7.2%.

As to `CN(C)c1cccc(C(=O)NCC2(N3CCCCC3)CCCCC2)c1`, the inhibition is inactive: -3.6%.

`O=C(NCC1(N2CCOCC2)CCCCC1)c1cc2ccccc2o1`: the inhibition was inactive: -3.6%.

`O=C(OC1CN2CCC1CC2)C1c2ccccc2Oc2ccccc21` (stereo not given): the inhibition is inactive: -1%.

On to `CCOC(=O)N1CCC(Nc2ccc(OC)cc2)CC1`, for which the inhibition was inactive: -0.3%.

With `COc1ccc(C(=O)NCC2(N3CCCCC3)CCCCC2)c(OC)c1OC`, the inhibition was inactive: -5%.

Turning to `COc1ccc(NC2CCN(CCc3ccccc3)CC2)c(OC)c1`, the inhibition is inactive: -4.2%.

On to `CCN1CCC(Nc2cccc(F)c2)CC1`, for which the inhibition is inactive: -3.6%.

In the case of `CN(C)c1ccc(C(=O)NCC2(N3CCCCC3)CCCCC2)cc1`, the inhibition is inactive: -5.4%.

As to `Fc1ccccc1NC1CCN(Cc2ccccc2)CC1`, the inhibition is inactive: -9.9%.

As for `COc1cc(OC)cc(C(=O)NCC2(N3CCOCC3)CCCCC2)c1`, the inhibition was inactive: -0.5%.

As for `CCC(CO)(C(=O)OC1CN2CCC1CC2)c1ccccc1` (stereo not given), the inhibition is inactive: -2.8%.

Take `CCOc1ncccc1C(=O)NCC1(N2CCOCC2)CCCCC1`: the inhibition was inactive: -5.1%.

With `CC(C)(C)OC(=O)N1CCC(Nc2ccccc2)CC1`, the inhibition is inactive: -1.2%.

On to `N/C(=N\O)c1c(N)no[n+]1[O-]`, for which the inhibition was inactive: -5%.

As to `O=C(OC1CN2CCC1CC2)C1c2ccccc2C=Cc2ccccc21` (stereo not given), the inhibition was inactive: -5.6%.

Consider `COc1ccc(C(=O)NCC2(N3CCOCC3)CCCCC2)cc1OC`, for which the inhibition was inactive: -4.9%.

As to `c1ccc(CN2CCC(Nc3ccccc3)CC2)cc1`, the inhibition is inactive: -3.9%.

Consider `N#Cc1ccc(C(=O)NCC2(N3CCCCC3)CCCCC2)cc1`, for which the inhibition is inactive: -3.1%.
